## AlphaSeq binding of Ab-14 heavy chain variants to a spike HR2 peptide

The measurements come from Li et al. 2023 (doi:10.1038/s41467-023-39022-2) through the FLAb antibody collection.

Target: peptide PDVDLGDISGINAS, taken from heptad repeat 2 (HR2) of SARS-CoV-2 spike.

Parent: Ab-14, a human scFv built as VH, a (GGGGS)3 linker, VL. Only the CDRs of the heavy chain vary.
VH: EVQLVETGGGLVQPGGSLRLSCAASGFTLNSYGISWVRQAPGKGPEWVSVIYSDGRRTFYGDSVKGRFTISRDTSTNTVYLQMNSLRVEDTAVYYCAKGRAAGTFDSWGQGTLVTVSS
VL: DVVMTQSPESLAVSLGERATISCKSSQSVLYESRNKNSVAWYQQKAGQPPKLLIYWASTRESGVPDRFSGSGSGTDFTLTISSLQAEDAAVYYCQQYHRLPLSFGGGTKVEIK

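The parent was found by panning a naive human phage display library on the peptide. Designed CDR sequences, proposed from the first random library and measured here. Their group label is 14H_GPLM_Gen (GPLM: also part of the Gaussian process libraries; Gen: genetic algorithm; a sequence that several methods proposed may carry one label only). In AlphaSeq, yeast of one mating type display the scFv and yeast of the other type display the target. Binding brings cells together so that they mate, and sequencing counts the barcode pairs among the diploids. Read counts were normalised to the haploid input and turned into Kd by a linear fit to BCL2-family pairs of known affinity, for each replicate. The assay was run in six technical replicates.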

Each variant's VH is given in full.
The read-out is the apparent dissociation constant on a log10 scale (nM): the lower, the stronger.
Where no diploid with the target was found in that replicate, the entry reads "nd": below detection, most likely a poor binder, though not proof of it.
Of ten entries with the parent sequence, four were seen in most replicates (averages 0.34 to 2.37), three in one and three in none, so single entries are noisy.
The authors' rule: three or more of the six replicates give a measured affinity, fewer mean a poor binder.
The range of this assay differs from that of the first round, and the authors advise against merging the two.
Nonspecific signal, from three strains lacking the peptide, appeared in 1% of pairings of all heavy chain designs, centred on 2.08 (5% of these signals below 0.84); values are not corrected for it. For each scFv, signals with the empty controls are counted beside the result, with their mean in brackets.

VH,"log10 Kd, replicates",empty controls
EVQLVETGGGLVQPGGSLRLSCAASGFSLNSYGISWVRQAPGKGPEWVSVIYSDGQRTFYADSVKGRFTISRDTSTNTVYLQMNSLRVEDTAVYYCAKGRAAGTFDSWGQGTLVTVSS,0.10 / 1.09 / 0.14 / 0.30 / 0.28 / -0.05,0 of 18
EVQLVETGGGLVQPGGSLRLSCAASGFTLNSYGISWVRQAPGKGPEWVSVIYADGRRTFYGDSVKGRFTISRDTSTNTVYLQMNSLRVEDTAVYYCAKGRAAGTFDFWGQGTLVTVSS,0.47 / 1.38 / 0.48 / 0.24 / 0.59 / 0.10,0 of 18
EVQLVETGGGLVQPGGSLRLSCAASGFTLKSYGISWVRQAPGKGPEWVSVIYADGRRTFYGDSVKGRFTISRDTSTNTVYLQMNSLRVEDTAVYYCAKGEAAGTFDSWGQGTLVTVSS,0.15 / -0.01 / -0.32 / -0.25 / -0.31 / -0.27,0 of 18
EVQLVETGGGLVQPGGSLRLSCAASGFELNSYGISWVRQAPGKGPEWVSVIYSDGRRTFYSDSVKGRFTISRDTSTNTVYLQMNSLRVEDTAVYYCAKGQAAGTFDTWGQGTLVTVSS,0.68 / 0.04 / 0.43 / -0.32 / -0.32 / 1.74,0 of 18
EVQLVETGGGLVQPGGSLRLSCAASGFTLDSYGISWVRQAPGKGPEWVSVIYSDGRRTFYTDSVKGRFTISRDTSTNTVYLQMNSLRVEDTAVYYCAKGRAAGTFDSWGQGTLVTVSS,1.14 / 0.73 / nd / 0.46 / nd / 2.67,0 of 18
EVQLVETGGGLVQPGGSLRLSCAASGFHLNSYGISWVRQAPGKGPEWVSVIYSDGRRTFYDDSVKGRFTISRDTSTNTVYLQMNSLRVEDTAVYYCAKGKAAGTFDSWGQGTLVTVSS,1.90 / 2.38 / 2.02 / 2.35 / 3.02 / nd,0 of 18
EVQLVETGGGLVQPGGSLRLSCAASHFNLNSYGISWVRQAPGKGPEWVSVIYSDGRRTFYGDSVKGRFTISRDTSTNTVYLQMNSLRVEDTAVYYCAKGRTAGTFDSWGQGTLVTVSS,nd / 1.71 / nd / nd / 2.23 / nd,0 of 18
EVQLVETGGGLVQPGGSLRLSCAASGFDLNSYGISWVRQAPGKGPEWVSVIYSDGRRTFYADSVKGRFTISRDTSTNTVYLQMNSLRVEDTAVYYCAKGQAAGKFDSWGQGTLVTVSS,nd / 0.69 / 1.21 / nd / 0.99 / 1.14,1 of 18 (1.53)
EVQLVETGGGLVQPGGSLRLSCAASGFVLNSYGISWVRQAPGKGPEWVSVIYSDGRRTFYGDSVKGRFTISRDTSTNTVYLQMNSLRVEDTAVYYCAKGRTAGTFDSWGQGTLVTVSS,1.61 / 1.72 / 1.34 / 2.04 / 1.95 / 1.18,1 of 18 (1.73)
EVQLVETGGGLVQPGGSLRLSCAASGFTLESYGISWVRQAPGKGPEWVSVIYSDGRRTFYSDSVKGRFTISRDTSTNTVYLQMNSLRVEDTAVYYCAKGKAAGTFDSWGQGTLVTVSS,0.34 / 0.22 / 0.51 / 0.19 / 0.18 / 0.34,0 of 18
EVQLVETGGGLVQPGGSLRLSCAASGFTLNEYGISWVRQAPGKGPEWVSVIYSDGRRTFYGDSVKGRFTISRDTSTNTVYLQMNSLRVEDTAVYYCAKGRTAGTFSSWGQGTLVTVSS,0.19 / 0.11 / -0.11 / 0.63 / 0.66 / 0.19,0 of 18
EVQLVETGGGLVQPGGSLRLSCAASGFTLNSYGISWVRQAPGKGPEWVSVIYADGRRTFYGDSVKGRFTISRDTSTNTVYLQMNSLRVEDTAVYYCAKGQVAGTFDSWGQGTLVTVSS,0.37 / 0.23 / 0.32 / -0.38 / 0.14 / 0.24,0 of 18
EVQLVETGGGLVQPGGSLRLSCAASGFELNTYGISWVRQAPGKGPEWVSVIYSDGRRTFYADSVKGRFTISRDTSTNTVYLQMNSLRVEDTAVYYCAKGRTAGTFDSWGQGTLVTVSS,1.27 / nd / -0.66 / nd / 0.30 / nd,0 of 18
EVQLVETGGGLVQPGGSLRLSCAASGFSLNSYGISWVRQAPGKGPEWVSVIYSDGRRTFYGDSVKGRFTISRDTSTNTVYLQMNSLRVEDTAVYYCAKGRTAGTFDDWGQGTLVTVSS,0.54 / 0.65 / 1.07 / 0.54 / 0.03 / 0.12,0 of 18
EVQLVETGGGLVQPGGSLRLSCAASGFSLNEYGISWVRQAPGKGPEWVSVIYSDGRRTFYADSVKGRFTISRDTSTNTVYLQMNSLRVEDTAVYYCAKGRTAGTFDTWGQGTLVTVSS,0.00 / -0.05 / -0.19 / -0.32 / -0.15 / -0.24,0 of 18
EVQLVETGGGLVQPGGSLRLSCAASGFDLNSYGISWVRQAPGKGPEWVSVIYSDGRRTFYADSVKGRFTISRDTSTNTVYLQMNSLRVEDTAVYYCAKGSAAGTFDSWGQGTLVTVSS,0.35 / 0.15 / -0.05 / -0.28 / 0.17 / 0.22,0 of 18
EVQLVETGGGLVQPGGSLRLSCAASGFSLNEYGISWVRQAPGKGPEWVSVIYSDGRRTFYIDSVKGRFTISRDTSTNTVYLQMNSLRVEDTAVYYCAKGKAAGTFDSWGQGTLVTVSS,0.70 / 0.01 / 0.01 / 0.08 / -0.12 / 0.71,0 of 18
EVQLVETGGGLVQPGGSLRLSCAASGFTLNSYGISWVRQAPGKGPEWVSVIYADGRRTFYGDSVKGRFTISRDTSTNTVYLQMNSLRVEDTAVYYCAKGEAAGTFDFWGQGTLVTVSS,-0.10 / -0.19 / -0.49 / -0.22 / 0.17 / 0.28,0 of 18
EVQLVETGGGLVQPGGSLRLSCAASGFSLNSYGISWVRQAPGKGPEWVSVIYSDGRRTFYGDSVKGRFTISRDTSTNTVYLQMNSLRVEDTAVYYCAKGWTAGTFDSWGQGTLVTVSS,0.73 / 0.39 / 0.37 / 0.31 / 0.29 / 0.89,0 of 18
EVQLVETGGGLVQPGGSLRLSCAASGFSLNEYGISWVRQAPGKGPEWVSVIYSDGRRTFYMDSVKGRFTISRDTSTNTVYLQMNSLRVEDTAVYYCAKGRTAGTFDSWGQGTLVTVSS,0.17 / 0.00 / -0.01 / -0.05 / -0.05 / 0.09,1 of 18 (3.15)
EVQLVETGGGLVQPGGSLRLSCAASGFDLNDYGISWVRQAPGKGPEWVSVIYSDGRRTFYGDSVKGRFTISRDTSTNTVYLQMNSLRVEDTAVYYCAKGRTAGTFDSWGQGTLVTVSS,-0.11 / 0.04 / -0.15 / -0.43 / -0.24 / -0.20,1 of 18 (2.70)
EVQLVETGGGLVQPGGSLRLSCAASGFVLNEYGISWVRQAPGKGPEWVSVIYSDGRRTFYSDSVKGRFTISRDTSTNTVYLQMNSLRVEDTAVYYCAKGKAAGTFDSWGQGTLVTVSS,1.03 / 1.44 / 0.73 / 0.20 / 0.39 / 0.81,0 of 18
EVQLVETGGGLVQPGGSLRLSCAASGFALNSYGISWVRQAPGKGPEWVSVIYADGRRTFYGDSVKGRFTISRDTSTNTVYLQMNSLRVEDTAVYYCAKGKAAGTFDSWGQGTLVTVSS,0.11 / 0.00 / -0.23 / -0.12 / -0.14 / 0.14,1 of 18 (2.67)
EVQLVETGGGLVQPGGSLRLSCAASGFSLNSYGISWVRQAPGKGPEWVSVIYSDGRRTFYCDSVKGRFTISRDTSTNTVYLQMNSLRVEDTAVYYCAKGRTAGTFDTWGQGTLVTVSS,nd / 2.09 / 1.48 / 1.52 / nd / 1.82,0 of 18

For reference, 3 entries of the list once more:

{"VH": "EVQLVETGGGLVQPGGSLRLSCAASGFHLNSYGISWVRQAPGKGPEWVSVIYSDGRRTFYDDSVKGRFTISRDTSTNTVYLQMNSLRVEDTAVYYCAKGKAAGTFDSWGQGTLVTVSS", "log10 Kd, replicates": "1.90 / 2.38 / 2.02 / 2.35 / 3.02 / nd", "empty controls": "0 of 18"}
{"VH": "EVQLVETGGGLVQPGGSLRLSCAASGFSLNSYGISWVRQAPGKGPEWVSVIYSDGRRTFYGDSVKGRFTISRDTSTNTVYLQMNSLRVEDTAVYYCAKGWTAGTFDSWGQGTLVTVSS", "log10 Kd, replicates": "0.73 / 0.39 / 0.37 / 0.31 / 0.29 / 0.89", "empty controls": "0 of 18"}
{"VH": "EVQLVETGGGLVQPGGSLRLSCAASGFSLNEYGISWVRQAPGKGPEWVSVIYSDGRRTFYADSVKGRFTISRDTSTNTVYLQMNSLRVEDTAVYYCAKGRTAGTFDTWGQGTLVTVSS", "log10 Kd, replicates": "0.00 / -0.05 / -0.19 / -0.32 / -0.15 / -0.24", "empty controls": "0 of 18"}